# Earlier results in patent US9222055B2, “High intensity fragrances” (TAKASAGO INTERNATIONAL CORPORATION, priority 2009, dated 2015).
substance,measurement,setting,value
Isobornyl Cyclohexanol,Bio-Degradable,"Table 18, ingredients of Comparative Fragrance J",No
same,Bio-Degradable,"Table 19, ingredients of Comparative Fragrance K",No

# Read-outs that look alike come from different tables or passages of the source.
